Data: patent US20220106301A1, “ACETAMIDO-PHENYLBENZAMIDE DERIVATIVES AND METHODS OF USING THE SAME” (Athenex, Inc., priority 2020, published 2022)

Amino acid sequences for entries named in this document (tags omitted).
UniProt P08684, whole entry: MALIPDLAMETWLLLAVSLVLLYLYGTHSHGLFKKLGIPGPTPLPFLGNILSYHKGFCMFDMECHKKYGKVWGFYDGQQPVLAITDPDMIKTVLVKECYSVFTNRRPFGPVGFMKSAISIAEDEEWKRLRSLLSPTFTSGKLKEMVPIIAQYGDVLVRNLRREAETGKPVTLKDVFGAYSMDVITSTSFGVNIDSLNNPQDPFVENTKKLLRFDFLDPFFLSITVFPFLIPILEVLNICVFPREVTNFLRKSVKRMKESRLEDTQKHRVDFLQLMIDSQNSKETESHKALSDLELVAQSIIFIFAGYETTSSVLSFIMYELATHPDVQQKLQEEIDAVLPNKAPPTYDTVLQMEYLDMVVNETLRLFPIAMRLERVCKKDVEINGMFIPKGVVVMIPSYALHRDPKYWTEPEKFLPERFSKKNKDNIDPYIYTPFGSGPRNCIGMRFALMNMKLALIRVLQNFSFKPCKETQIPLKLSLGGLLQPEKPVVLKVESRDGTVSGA
UniProt P08183, whole entry: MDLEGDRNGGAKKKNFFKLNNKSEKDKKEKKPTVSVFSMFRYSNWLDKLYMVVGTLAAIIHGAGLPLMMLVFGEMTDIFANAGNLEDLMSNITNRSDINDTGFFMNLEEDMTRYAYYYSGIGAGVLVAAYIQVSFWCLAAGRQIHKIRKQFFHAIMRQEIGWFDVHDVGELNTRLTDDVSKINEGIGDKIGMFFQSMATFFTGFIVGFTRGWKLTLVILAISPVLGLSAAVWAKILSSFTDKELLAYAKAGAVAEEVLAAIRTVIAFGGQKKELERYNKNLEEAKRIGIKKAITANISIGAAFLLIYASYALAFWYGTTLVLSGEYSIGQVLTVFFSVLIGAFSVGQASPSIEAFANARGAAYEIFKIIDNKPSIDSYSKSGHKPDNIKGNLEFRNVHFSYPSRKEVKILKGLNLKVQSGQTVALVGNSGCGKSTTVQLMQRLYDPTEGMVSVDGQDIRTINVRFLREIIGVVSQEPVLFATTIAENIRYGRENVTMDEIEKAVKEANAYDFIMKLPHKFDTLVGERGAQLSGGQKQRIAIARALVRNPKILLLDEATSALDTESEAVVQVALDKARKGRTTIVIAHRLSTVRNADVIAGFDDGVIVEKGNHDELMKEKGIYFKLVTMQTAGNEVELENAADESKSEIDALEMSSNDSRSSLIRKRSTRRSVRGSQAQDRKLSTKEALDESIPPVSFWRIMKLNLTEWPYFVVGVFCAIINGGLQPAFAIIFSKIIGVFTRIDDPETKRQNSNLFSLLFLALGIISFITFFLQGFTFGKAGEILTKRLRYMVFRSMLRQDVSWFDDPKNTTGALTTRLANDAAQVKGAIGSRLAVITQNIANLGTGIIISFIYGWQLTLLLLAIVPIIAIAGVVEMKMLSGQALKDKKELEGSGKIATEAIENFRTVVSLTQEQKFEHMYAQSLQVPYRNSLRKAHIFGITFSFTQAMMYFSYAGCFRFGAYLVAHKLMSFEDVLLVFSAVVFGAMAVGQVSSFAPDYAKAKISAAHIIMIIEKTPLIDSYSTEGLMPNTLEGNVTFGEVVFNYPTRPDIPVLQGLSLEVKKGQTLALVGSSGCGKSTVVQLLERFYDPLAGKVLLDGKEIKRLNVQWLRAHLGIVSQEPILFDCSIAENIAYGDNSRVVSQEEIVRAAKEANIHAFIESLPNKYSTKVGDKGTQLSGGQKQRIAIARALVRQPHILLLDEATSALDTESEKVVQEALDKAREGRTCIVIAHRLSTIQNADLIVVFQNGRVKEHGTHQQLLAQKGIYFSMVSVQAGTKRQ

Assays:
CYP3A4 = CYP3A4 (Homo sapiens, UniProt P08684)
P-glycoprotein = P-glycoprotein (Homo sapiens, UniProt P08183)

IC50 (CYP3A4): > 1000 nM
EC50 (P-glycoprotein): < 100 nM
Compound: COc1cc(NC(=O)c2cc(=O)c3ccccc3o2)c(C(=O)Nc2ccc(CC[N+]([O-])(Cc3ccc4c(cnn4C)c3)Cc3ccc[n+]([O-])c3)cc2)cc1OC (centres unmarked)
